Experimental data as given in PMC3744640 (Bioorganic & medicinal chemistry letters, 2013).

Assays:
[1] = tested on: HepG2; assay: growth inhibition of HepG2 liver carcinoma cells; type: cell-based; conditions: up to 100 μM
[2] = tested on: Huh-7; assay: growth inhibition of Huh-7 liver carcinoma cells; type: cell-based; conditions: up to 100 μM

SMILES: CCC(=O)N1CCC(NC(=O)Nc2ccc(OC(F)(F)F)cc2)CC1 [TPPU]
- effect on cell viability (in words) [1]: no observable effects on cell viability
- effect on cell viability (in words) [2]: no observable effects on cell viability
